Results taken from PMC5201116, “Bioactive Flavonoids and Catechols as Hif1 and Nrf2 Protein Stabilizers - Implications for Parkinson’s Disease” (Aging and Disease, 2016).

Experiments:
Format in all cases: cell-based
[1] = system: HIF1 ODD-luc reporter (SH-SY5Y cell line); test: HIF1 ODD-luc reporter assay; settings: Homo sapiens, 3 h incubation, read-out: ODD-luc fold activation
Protocol: (§1) SH-SY5Y cell lines stably expressing HIF1 ODD-luc or Neh2-luc reporters were grown in the DMEM/F12 supplemented with GlutaMAX (Thermo Fisher Scientific) containing 10% FBS, 100 U/ml penicillin, and 100 μg/ml streptomycin and plated into 384-well white flat-bottom plates at 7,000 cell/well in 30 µl serum and incubated overnight at 37°C, 5% CO2. The next day compounds were added to a final concentration of 10 µM and the plates were incubated for 3 hours at 37°C. Reporter activation after 3 h incubation with the studied compound was compared to that for ciclopirox (HIF1 ODD-luc reporter) or TBHQ (Neh2-luc reporter), taken as 100%. Luciferase reporter activity was measured with a SteadyGlo reagent from Promega providing stable reading for 1 h.
(§2) Cells were plated at the density of 25,000 cell per well using a WellMate multichannel dispenser from Matrix (Thermo Fisher Scientific, Waltham, MA) and grown overnight on DMEM/F12+GlutaMAX (100 µl per well). Then an inhibitor was added, and the plates were incubated for a fixed time interval; the medium was removed, cells lysed, and luciferase activity was measured on a SpectraMax M5e platereader (Molecular Devices, Sunnyvale, CA) with BrightGlo™ reagent (Promega, Madison, WI). The reporter activation was normalized to the background luminescence. […]

[2] = system: HRE-luciferase reporter (HT22 hippocampal cell line); test: HRE-luc reporter assay; settings: Mus musculus, HT-22, 3 h, read-out: HRE-luc fold activation
From the text: A promoter-reporter construct that contained 68 bp of a known hypoxia and HIF-1 regulated gene, enolase, containing a wild type hypoxia response element (HRE, 5’-RCTGT-3’), is a widely used approach for screening for HIF activators of different mechanism of action. A cell-based assay with HRE-luciferase reporter system is based on transfected immortalized hippocampal cell line (HT22) and allows screening for a broad spectrum of compounds that include: activators of HIF transcription; activators of HIF binding to HRE; and effectors of HIF protein stability (PHD inhibitors, pVHL & proteasome inhibitors). The assay was performed the same way as for HIF ODD-luc reporter except the cells were plated at the density of 10,000 cell per well and incubated overnight.

[3] = system: Neh2-luc reporter (SH-SY5Y cell line); test: Neh2-luc reporter assay; settings: at 10 µM, 3 h incubation
Protocol: as §1, §2

For `O=c1c(O)c(-c2ccccc2)oc2cc(O)ccc12` [compound 2, 3,7-Dihydroxy-], the fold induction at 10 µM [1] was 2 ± 0.2, the fold induction at 10 µM [2] was 1.5 ± 0.2 and the Neh2-luc fold activation [3] was “Inactive”.
